In publication PMC4838890, “Dynamic and flexible H3K9me3 bridging via HP1β dimerization establishes a plastic state of condensed chromatin” (Nature Communications, 2016):

Test system: H3K9me3 oligonucleosomes
Experiment: Chromatin sedimentation (clustering), H3K9me3 oligonucleosomes
Type: biochemical, Xenopus laevis
Settings: mixed H3K9me0/H3K9me3 octamers, hHP1β WT at saturating concentration, 150 mM NaCl
Experimental: Figure 3 hHP1β clusters oligonuclesomal arrays in dependence of H3K9me3. (a) Oligonucleosomes (2.5 nM) were incubated with increasing concentrations of hHP1β WT or I161A at 150 mM NaCl. DNA remaining in the supernatant after centrifugation was incubated with EtBr and measured by fluorescence reading. Data were normalized to amounts in absence of added protein. Averages of three independent experiments are plotted; error bars represent s.d.; n=3. (b) Analysis of the hydrodynamic radius of oligonucleosomes (10 nM; DNA labelled with ATTO 610) in the presence of increasing concentrations of hHP1β WT or I161A by FCS at 150 mM NaCl. For details on experimental setup see Supplementary Fig. 3. Error bars represent s.d.; n=3. (c) Oligonucleosomes were reconstituted after mixing H3K9me0 and H3K9me3 octamers at different ratio. […] (d) Precipitation behaviour of oligonucleosomes (2.5 nM) was analysed at different concentrations of NaCl with hHP1β WT at saturating concentration. […] Precipitated material was analysed by western blotting. […] Complexes were fixed with 0.05% (v/v) glutaraldehyde, spotted on mica surfaces and analysed by scanning force microscopy. […] (h) Quantification of results representatively shown in g according to the classification on the top: A, extended; B, partially condensed; C, fully condensed; D; aggregates; n>50 for each condition. […]

## hHP1β WT: recombinant human heterochromatin protein 1β (GenBank NM_001127228), 185 aa
  H3K9me3 content required for efficient chromatin clustering: more than 50%
